Measurements taken from patent US6913760B2, “Drug delivery composition” (New England Medical Hospitals, Inc., priority 2001, dated 2005).
Entries after “also recorded” stand apart in the source; their conditions may differ.

What was measured:
[1] = test system: rats with sciatic nerve ligation; assay: Paw withdrawal threshold after sciatic nerve ligation, rods placed parallel to the nerve; design: species or system Sprague-Dawley rats; conditions: rat, in vivo
[2] = Drug release studies of PLGA 85:15 rods (Example 2); type: physicochemical
[3] = rat
[4] = In vitro release of BP or HM from PLGA 50:50 rods; type: physicochemical
rats = assay: Anesthesia after intrathecal polymeric implants, all sites tested (Example 2); conditions: rat, in vivo

CN1CC[C@]23c4c5ccc(O)c4O[C@H]2C(=O)CC[C@H]3[C@H]1C5 [Hydromorphone, hydromorphone]
analgesia, paw withdrawal threshold (difference score) [1]: insufficient to provide analgesia; also recorded: possible to achieve the analgesic effect
relative rate of drug release [2]: slowest
release from rods retrieved after termination of in vivo test [3]: significant release
in vitro extent of release over time [4]: almost all of its contents within a month
in vitro release behavior [4]: almost first order behavior
duration of anesthesia/analgesia (rats): 3 to 4 days
time of highest degree of anesthesia after implantation (rats): 2 h
